Columns and labels:
Type in all cases: biochemical
JAK1 [1] = target: T1, JAK1 (Homo sapiens (Human), UniProt P23458); experiment: Enzyme assay, JAK1 (Assay Example^b 1); conditions: ATP 100 μM
Tyk2 [2] = target: T2, Tyk2 (Homo sapiens (Human), UniProt P29597); experiment: Enzyme assay, Tyk2 (Assay Example^b 1); conditions: ATP 100 μM
JAK1 [3] = target: T1, JAK1; experiment: Enzyme assay (LANCE Ultra ULight-JAK1 Peptide), JAK1; conditions: ATP 100 μM
JAK3 = JAK3 (Homo sapiens (Human), UniProt P52333); experiment: Enzyme assay (LANCE Ultra ULight-JAK1 Peptide), JAK3
Tyk2 [4] = target: T2, Tyk2; experiment: Enzyme assay (LANCE Ultra ULight-JAK1 Peptide), Tyk2; conditions: ATP 100 μM

By UniProt entry, the sequences of proteins in these tests, tags left out. Where a name states a change or a piece, a line headed by the entry shows the natural chain unless it says otherwise.
UniProt P23458: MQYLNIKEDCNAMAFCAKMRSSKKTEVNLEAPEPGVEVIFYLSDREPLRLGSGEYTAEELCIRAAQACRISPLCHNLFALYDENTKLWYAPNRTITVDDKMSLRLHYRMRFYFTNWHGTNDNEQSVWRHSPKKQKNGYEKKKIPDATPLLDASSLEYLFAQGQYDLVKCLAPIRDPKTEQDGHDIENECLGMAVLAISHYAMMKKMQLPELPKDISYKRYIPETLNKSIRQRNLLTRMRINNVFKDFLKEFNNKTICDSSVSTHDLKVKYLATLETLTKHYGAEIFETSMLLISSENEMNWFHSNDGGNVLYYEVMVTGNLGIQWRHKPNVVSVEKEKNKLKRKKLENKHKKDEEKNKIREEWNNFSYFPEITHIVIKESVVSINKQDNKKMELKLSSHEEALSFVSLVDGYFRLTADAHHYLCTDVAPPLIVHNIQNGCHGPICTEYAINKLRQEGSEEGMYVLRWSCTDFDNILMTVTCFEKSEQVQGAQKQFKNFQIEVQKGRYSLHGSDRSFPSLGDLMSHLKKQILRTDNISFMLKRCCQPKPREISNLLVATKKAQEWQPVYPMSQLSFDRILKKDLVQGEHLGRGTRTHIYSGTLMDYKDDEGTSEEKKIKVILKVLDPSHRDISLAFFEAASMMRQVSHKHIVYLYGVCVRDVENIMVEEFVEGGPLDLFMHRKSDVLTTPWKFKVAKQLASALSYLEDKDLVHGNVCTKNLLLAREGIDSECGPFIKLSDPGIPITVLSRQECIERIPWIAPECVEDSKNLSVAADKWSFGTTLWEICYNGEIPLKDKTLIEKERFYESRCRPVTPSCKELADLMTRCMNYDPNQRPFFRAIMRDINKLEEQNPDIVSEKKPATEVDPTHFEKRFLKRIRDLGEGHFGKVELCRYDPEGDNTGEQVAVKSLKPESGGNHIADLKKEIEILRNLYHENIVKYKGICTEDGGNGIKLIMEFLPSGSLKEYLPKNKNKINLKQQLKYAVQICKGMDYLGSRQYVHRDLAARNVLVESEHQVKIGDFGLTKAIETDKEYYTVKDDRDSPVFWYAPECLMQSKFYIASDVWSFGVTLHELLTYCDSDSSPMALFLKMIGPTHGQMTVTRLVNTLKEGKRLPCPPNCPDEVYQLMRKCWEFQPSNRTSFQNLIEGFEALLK
UniProt P29597: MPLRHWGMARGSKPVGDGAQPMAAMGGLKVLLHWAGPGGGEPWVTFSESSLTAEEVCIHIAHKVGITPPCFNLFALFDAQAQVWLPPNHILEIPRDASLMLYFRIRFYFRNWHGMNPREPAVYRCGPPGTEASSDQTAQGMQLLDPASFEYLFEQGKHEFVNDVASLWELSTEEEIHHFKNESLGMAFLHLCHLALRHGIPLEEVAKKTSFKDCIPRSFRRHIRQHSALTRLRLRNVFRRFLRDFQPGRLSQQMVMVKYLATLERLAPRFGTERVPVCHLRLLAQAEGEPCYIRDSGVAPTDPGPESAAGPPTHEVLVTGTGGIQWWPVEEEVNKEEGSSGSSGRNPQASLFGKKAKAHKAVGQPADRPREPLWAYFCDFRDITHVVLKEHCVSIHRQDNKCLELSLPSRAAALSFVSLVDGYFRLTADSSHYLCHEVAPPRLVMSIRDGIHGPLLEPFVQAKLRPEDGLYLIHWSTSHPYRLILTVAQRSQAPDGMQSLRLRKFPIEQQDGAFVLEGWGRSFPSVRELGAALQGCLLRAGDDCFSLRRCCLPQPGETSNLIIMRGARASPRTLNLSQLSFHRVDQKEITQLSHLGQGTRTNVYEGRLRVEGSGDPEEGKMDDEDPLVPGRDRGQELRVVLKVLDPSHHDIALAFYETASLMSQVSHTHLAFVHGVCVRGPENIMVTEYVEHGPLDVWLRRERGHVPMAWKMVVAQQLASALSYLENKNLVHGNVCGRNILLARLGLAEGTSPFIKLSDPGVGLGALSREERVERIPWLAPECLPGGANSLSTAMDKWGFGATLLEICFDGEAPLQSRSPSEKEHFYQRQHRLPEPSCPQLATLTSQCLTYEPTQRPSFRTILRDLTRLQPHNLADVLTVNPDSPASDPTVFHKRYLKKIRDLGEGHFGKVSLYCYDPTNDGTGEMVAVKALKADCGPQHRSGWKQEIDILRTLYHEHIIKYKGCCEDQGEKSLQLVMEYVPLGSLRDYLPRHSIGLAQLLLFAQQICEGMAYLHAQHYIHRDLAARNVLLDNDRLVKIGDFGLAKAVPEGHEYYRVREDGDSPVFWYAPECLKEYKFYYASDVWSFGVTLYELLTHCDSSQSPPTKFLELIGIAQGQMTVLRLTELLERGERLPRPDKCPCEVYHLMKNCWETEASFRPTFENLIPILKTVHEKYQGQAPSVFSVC
UniProt P52333: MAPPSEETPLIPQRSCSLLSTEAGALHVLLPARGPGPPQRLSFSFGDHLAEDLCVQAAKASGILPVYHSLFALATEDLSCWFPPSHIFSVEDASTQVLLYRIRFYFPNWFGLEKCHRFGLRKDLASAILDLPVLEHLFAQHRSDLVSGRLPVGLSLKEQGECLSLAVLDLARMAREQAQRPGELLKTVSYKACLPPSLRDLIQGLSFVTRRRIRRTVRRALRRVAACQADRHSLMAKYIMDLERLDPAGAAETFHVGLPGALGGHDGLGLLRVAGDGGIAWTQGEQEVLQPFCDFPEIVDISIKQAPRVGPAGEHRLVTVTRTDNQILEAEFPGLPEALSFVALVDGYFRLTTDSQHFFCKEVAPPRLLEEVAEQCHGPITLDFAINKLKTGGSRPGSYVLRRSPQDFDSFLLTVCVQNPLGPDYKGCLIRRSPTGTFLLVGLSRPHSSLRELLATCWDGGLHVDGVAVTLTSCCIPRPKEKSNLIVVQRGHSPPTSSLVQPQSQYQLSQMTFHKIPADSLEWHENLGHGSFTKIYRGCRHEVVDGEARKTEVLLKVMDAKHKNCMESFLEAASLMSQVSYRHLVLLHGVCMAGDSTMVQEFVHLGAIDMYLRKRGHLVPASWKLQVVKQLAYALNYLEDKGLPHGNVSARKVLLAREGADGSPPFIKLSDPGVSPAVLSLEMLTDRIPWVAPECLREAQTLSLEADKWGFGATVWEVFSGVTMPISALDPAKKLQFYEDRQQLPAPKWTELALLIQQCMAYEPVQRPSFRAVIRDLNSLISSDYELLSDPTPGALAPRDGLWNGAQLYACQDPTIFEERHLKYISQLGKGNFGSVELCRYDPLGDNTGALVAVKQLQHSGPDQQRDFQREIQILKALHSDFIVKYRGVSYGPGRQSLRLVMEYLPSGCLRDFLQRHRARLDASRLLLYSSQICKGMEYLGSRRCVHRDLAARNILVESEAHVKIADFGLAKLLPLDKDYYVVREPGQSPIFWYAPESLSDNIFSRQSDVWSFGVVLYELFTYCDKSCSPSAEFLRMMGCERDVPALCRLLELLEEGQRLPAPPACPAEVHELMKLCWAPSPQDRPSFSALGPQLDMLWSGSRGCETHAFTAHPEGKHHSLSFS

Compound | IC50 (JAK1 [1]) [µM] | IC50 (Tyk2 [2]) [µM] | IC50 (JAK1 [3]) [µM] | IC50 (JAK3) [µM] | IC50 (Tyk2 [4]) [µM]
C[C@@H]1CCN(Cc2cccc(F)c2F)C[C@@H]1n1ccc(=O)c2cnc3[nH]ccc3c21 (racemic) [Synthetic Example^b 6a, rac-1-[(3R,4R)-1-(2,3-Difluorobenzyl)-4-methylpiperidin-3-yl]-1H-pyrrolo[2,3-h][1,6]naphthyridin-4(7H)-one] | 0.027 | 0.63 |  |  | 
C[C@@H]1CCN(C)C[C@@H]1n1ccc(=O)c2cnc3[nH]ccc3c21 (racemic) [Synthetic Example^b 6b, rac-1-[(3R,4R)-1,4-Dimethylpiperidin-3-yl]-1H-pyrrolo[2,3-h][1,6]naphthyridin-4(7H)-one] | 0.19 |  |  |  | 
N#Cc1ccc(CN2CCC(c3nnn4cnc5[nH]ccc5c34)CC2)cc1 [Ex 210] |  |  | 0.0047 | 0.077 | 0.29

Reference: patent US9556187B2, “Substituted pyrrolo[3′,2′:5,6]pyrido[4,3-d]pyrimidines and JAK inhibitors comprising the same” (priority 2011, dated 2017)
